Data from ChEMBL document CHEMBL1124775 (J Med Chem, 1990).

Columns and labels:
Rattus norvegicus [1] = test: In vivo binding specificity the compound in rat striatum at 60 min of intravenous injection.
Rattus norvegicus [2] = test: In vivo binding specificity the compound in rat cerebellum at 60 min of intravenous injection.
Rattus norvegicus [3] = test: In vivo binding specificity the compound in rat striatum at 30 min of intravenous injection.
[4] = Specificity of binding in vivo was measured as the ratio of activity localized in the striatum (percent injected dose/gram) to that localized in the cerebellum (percent injected dose/gram) at 60 min
[5] = Specificity of binding in vivo was measured as the ratio of activity localized in the striatum (percent injected dose/gram) to that localized in the cerebellum (percent injected dose/gram) at 30 min
Rattus norvegicus [6] = test: In vivo binding specificity the compound in rat cerebellum at 30 min of intravenous injection.
Rattus norvegicus [7] = species on record: Rattus norvegicus; test: Binding of [3H]diprenorphine to rat brain membranes was evaluated and the dissociation constant (KD) was determined.; parameters: species or system Membrane
[8] = Ratio of activity localized in the cortex (percent injected dose/gram) to that localized in the cerebellum (percent injected dose/gram) at 60 min
Rattus norvegicus [9] = test: Evaluation of the biodistribution ofcompound in kidney of female Sprague-Dawley rats at 30 min of intravenous injection.; details: in vivo, 0.5 h
[10] = Ratio of activity localized in the striatum (percent injected dose/gram) to that localized in the cerebellum (percent injected dose/gram) at 30 min
Rattus norvegicus [11] = test: Evaluation of the biodistribution ofcompound in liver of female Sprague-Dawley rats at 5 min of intravenous injection.; details: in vivo
Rattus norvegicus [12] = test: Evaluation of the biodistribution ofcompound in frontal cortex of female Sprague-Dawley rats at 5 min of intravenous injection with naloxone; details: in vivo
Rattus norvegicus [13] = test: Evaluation of the biodistribution ofcompound in frontal cortex of female Sprague-Dawley rats at 30 min of intravenous injection.; details: in vivo, 0.5 h
Rattus norvegicus [14] = test: Evaluation of the biodistribution ofcompound in liver of female Sprague-Dawley rats at 30 min of intravenous injection.; details: in vivo, 0.5 h
Rattus norvegicus [15] = test: Evaluation of the biodistribution ofcompound in blood of female Sprague-Dawley rats at 60 min of intravenous injection.; details: in vivo, 1 h
Rattus norvegicus [16] = test: Evaluation of the biodistribution ofcompound in blood of female Sprague-Dawley rats at 30 min of intravenous injection.; details: in vivo, 0.5 h
Rattus norvegicus [17] = test: Evaluation of the biodistribution ofcompound in kidney of female Sprague-Dawley rats at 5 min of intravenous injection with naloxone; details: in vivo
Rattus norvegicus [18] = test: Evaluation of the biodistribution ofcompound in muscle of female Sprague-Dawley rats at 30 min of intravenous injection.; details: in vivo, 0.5 h, Muscle tissue
Rattus norvegicus [19] = test: Evaluation of the biodistribution ofcompound in striatum of female Sprague-Dawley rats at 60 min of intravenous injection.; details: in vivo, 1 h
Rattus norvegicus [20] = test: Evaluation of the biodistribution ofcompound in frontal cortex of female Sprague-Dawley rats at 5 min of intravenous injection.; details: in vivo
Rattus norvegicus [21] = test: Evaluation of the biodistribution ofcompound in bone of female Sprague-Dawley rats at 5 min of intravenous injection with naloxone; details: in vivo, Bone element
Rattus norvegicus [22] = test: Evaluation of the biodistribution ofcompound in blood of female Sprague-Dawley rats at 5 min of intravenous injection with naloxone; details: in vivo
Rattus norvegicus [23] = test: Evaluation of the biodistribution ofcompound in kidney of female Sprague-Dawley rats at 30 min of intravenous injection with naloxone; details: in vivo, 0.5 h
Rattus norvegicus [24] = test: Evaluation of the biodistribution ofcompound in cerebellum of female Sprague-Dawley rats at 5 min of intravenous injection with naloxone; details: in vivo
Rattus norvegicus [25] = test: Evaluation of the biodistribution ofcompound in cerebellum of female Sprague-Dawley rats at 60 min of intravenous injection.; details: in vivo, 1 h
[26] = Ratio of activity localized in the striatum (percent injected dose/gram) to that localized in the cerebellum (percent injected dose/gram) at 60 min
Rattus norvegicus [27] = test: Evaluation of the biodistribution ofcompound in frontal cortex of female Sprague-Dawley rats at 30 min of intravenous injection with naloxone; details: in vivo, 0.5 h
Rattus norvegicus [28] = test: Evaluation of the biodistribution ofcompound in muscle of female Sprague-Dawley rats at 60 min of intravenous injection.; details: in vivo, 1 h, Muscle tissue
[29] = Ratio of activity localized in the cortex (percent injected dose/gram) to that localized in the cerebellum (percent injected dose/gram) at 5 min
Rattus norvegicus [30] = test: Evaluation of the biodistribution ofcompound in blood of female Sprague-Dawley rats at 5 min of intravenous injection.; details: in vivo
Rattus norvegicus [31] = test: Evaluation of the biodistribution ofcompound in bone of female Sprague-Dawley rats at 30 min of intravenous injection.; details: in vivo, 0.5 h, Bone element
Rattus norvegicus [32] = test: Evaluation of the biodistribution ofcompound in cerebellum of female Sprague-Dawley rats at 30 min of intravenous injection.; details: in vivo, 0.5 h
Rattus norvegicus [33] = test: Evaluation of the biodistribution ofcompound in striatum of female Sprague-Dawley rats at 5 min of intravenous injection.; details: in vivo
Rattus norvegicus [34] = species on record: Rattus norvegicus; test: Ratio of activity localized in the cortex (percent injected dose/gram) to that localized in the cerebellum (percent injected dose/gram) at 5 min with naloxone
Rattus norvegicus [35] = test: Evaluation of the biodistribution ofcompound in bone of female Sprague-Dawley rats at 30 min of intravenous injection with naloxone; details: in vivo, 0.5 h, Bone element
Rattus norvegicus [36] = test: Evaluation of the biodistribution ofcompound in muscle of female Sprague-Dawley rats at 5 min of intravenous injection.; details: in vivo, Muscle tissue
Rattus norvegicus [37] = test: Evaluation of the biodistribution ofcompound in muscle of female Sprague-Dawley rats at 30 min of intravenous injection with naloxone; details: in vivo, 0.5 h, Muscle tissue
Rattus norvegicus [38] = test: Evaluation of the biodistribution ofcompound in kidney of female Sprague-Dawley rats at 5 min of intravenous injection.; details: in vivo
Rattus norvegicus [39] = test: Evaluation of the biodistribution ofcompound in brain of female Sprague-Dawley rats at 5 min of intravenous injection.; details: in vivo
Rattus norvegicus [40] = test: Evaluation of the biodistribution ofcompound in liver of female Sprague-Dawley rats at 60 min of intravenous injection.; details: in vivo, 1 h
Rattus norvegicus [41] = test: Evaluation of the biodistribution ofcompound in brain of female Sprague-Dawley rats at 5 min of intravenous injection with naloxone; details: in vivo
Rattus norvegicus [42] = test: Evaluation of the biodistribution ofcompound in brain of female Sprague-Dawley rats at 60 min of intravenous injection.; details: in vivo, 1 h
Rattus norvegicus [43] = test: Evaluation of the biodistribution ofcompound in kidney of female Sprague-Dawley rats at 60 min of intravenous injection.; details: in vivo, 1 h
Rattus norvegicus [44] = species on record: Rattus norvegicus; test: Ratio of activity localized in the striatum (percent injected dose/gram) to that localized in the cerebellum (percent injected dose/gram) at 5 min with naloxone
Rattus norvegicus [45] = test: Evaluation of the biodistribution ofcompound in cerebellum of female Sprague-Dawley rats at 30 min of intravenous injection with naloxone; details: in vivo, 0.5 h
Rattus norvegicus [46] = test: Evaluation of the biodistribution ofcompound in brain of female Sprague-Dawley rats at 30 min of intravenous injection with naloxone; details: in vivo, 0.5 h
Rattus norvegicus [47] = test: Evaluation of the biodistribution ofcompound in brain of female Sprague-Dawley rats at 30 min of intravenous injection.; details: in vivo, 0.5 h
Rattus norvegicus [48] = test: Evaluation of the biodistribution ofcompound in bone of female Sprague-Dawley rats at 5 min of intravenous injection.; details: in vivo, Bone element
Rattus norvegicus [49] = species on record: Rattus norvegicus; test: Ratio of activity localized in the cortex (percent injected dose/gram) to that localized in the cerebellum (percent injected dose/gram) at 30 min with naloxone
Rattus norvegicus [50] = test: Evaluation of the biodistribution ofcompound in liver of female Sprague-Dawley rats at 30 min of intravenous injection with naloxone; details: in vivo, 0.5 h
Rattus norvegicus [51] = test: Evaluation of the biodistribution ofcompound in muscle of female Sprague-Dawley rats at 5 min of intravenous injection with naloxone; details: in vivo, Muscle tissue
Rattus norvegicus [52] = test: Evaluation of the biodistribution ofcompound in striatum of female Sprague-Dawley rats at 30 min of intravenous injection.; details: in vivo, 0.5 h
Rattus norvegicus [53] = species on record: Rattus norvegicus; test: Ratio of activity localized in the striatum (percent injected dose/gram) to that localized in the cerebellum (percent injected dose/gram) at 30 min with naloxone
Rattus norvegicus [54] = test: Evaluation of the biodistribution ofcompound in striatum of female Sprague-Dawley rats at 5 min of intravenous injection with naloxone; details: in vivo
Rattus norvegicus [55] = test: Evaluation of the biodistribution ofcompound in liver of female Sprague-Dawley rats at 5 min of intravenous injection with naloxone; details: in vivo
Rattus norvegicus [56] = test: Evaluation of the biodistribution ofcompound in frontal cortex of female Sprague-Dawley rats at 60 min of intravenous injection.; details: in vivo, 1 h
[57] = Ratio of activity localized in the striatum (percent injected dose/gram) to that localized in the cerebellum (percent injected dose/gram) at 5 min
[58] = Ratio of activity localized in the cortex (percent injected dose/gram) to that localized in the cerebellum (percent injected dose/gram) at 30 min
Rattus norvegicus [59] = test: Evaluation of the biodistribution ofcompound in bone of female Sprague-Dawley rats at 60 min of intravenous injection.; details: in vivo, 1 h, Bone element
Rattus norvegicus [60] = test: Evaluation of the biodistribution ofcompound in striatum of female Sprague-Dawley rats at 30 min of intravenous injection with naloxone; details: in vivo, 0.5 h
Rattus norvegicus [61] = test: Evaluation of the biodistribution ofcompound in blood of female Sprague-Dawley rats at 30 min of intravenous injection with naloxone; details: in vivo, 0.5 h
Rattus norvegicus [62] = test: Evaluation of the biodistribution ofcompound in cerebellum of female Sprague-Dawley rats at 5 min of intravenous injection.; details: in vivo
Rattus norvegicus [63] = species on record: Rattus norvegicus; test: Binding of [3H]diprenorphine to rat striatal membranes was evaluated and the dissociation constant (KD) was determined.; details: Striatum
[64] = The dissociation rate constant (K-1) was determined.
[65] = The association rate constant (K1) was determined.

## CO[C@]12CC[C@@]3(C[C@@H]1C(C)(C)O)[C@H]1Cc4ccc(O)c5c4[C@@]3(CCN1C[C@H](C)C[18F])[C@H]2O5.Cl
Rattus norvegicus [1]
  ID (per g of tissue): 0.068%
Rattus norvegicus [2]
  ID (per g of tissue): 0.062%
Rattus norvegicus [3]
  ID (per g of tissue): 0.198%
[4]
  Ratio: 1.13
[5]
  Ratio: 1.15
Rattus norvegicus [6]
  ID (per g of tissue): 0.176%

## CO[C@]12CC[C@@]3(C[C@@H]1C(C)(C)O)[C@H]1Cc4ccc(O)c5c4[C@@]3(CCN1CC1CC1)[C@H]2O5
Rattus norvegicus [7]
  Kd: 1 nM

## CO[C@]12CC[C@@]3(C[C@@H]1C(C)(C)O)[C@H]1Cc4ccc(O)c5c4[C@@]3(CCN1CCC[18F])[C@H]2O5
[8]
  Ratio: 2.37%
Rattus norvegicus [9]
  ID (per g of organ): 0.2%
[10]
  Ratio: 3.37%
Rattus norvegicus [11]
  ID (per g of organ): 7.84%
Rattus norvegicus [12]
  ID (per g of tissue): 0.46%
Rattus norvegicus [1]
  ID (per g of tissue): 0.09%
Rattus norvegicus [13]
  ID (per g of tissue): 0.255%
Rattus norvegicus [14]
  ID (per g of organ): 2.86%
Rattus norvegicus [15]
  ID (per g of organ): 0.71%
Rattus norvegicus [16]
  ID (per g of organ): 1.46%
Rattus norvegicus [17]
  ID (per g of organ): 0.81%
Rattus norvegicus [18]
  ID (per g of organ): 3.4%
Rattus norvegicus [19]
  ID (per g of tissue): 0.103%
Rattus norvegicus [20]
  ID (per g of tissue): 1.36%
Rattus norvegicus [21]
  ID (per g of organ): 3.43%
Rattus norvegicus [22]
  ID (per g of organ): 2.89%
Rattus norvegicus [23]
  ID (per g of organ): 0.18%
Rattus norvegicus [24]
  ID (per g of tissue): 0.45%
Rattus norvegicus [25]
  ID (per g of tissue): 0.036%
[26]
  Ratio: 2.95%
Rattus norvegicus [27]
  ID (per g of tissue): 0.08%
Rattus norvegicus [28]
  ID (per g of organ): 0.84%
Rattus norvegicus [2]
  ID (per g of tissue): 0.033%
[29]
  Ratio: 1.71%
Rattus norvegicus [30]
  ID (per g of organ): 4.69%
Rattus norvegicus [31]
  ID (per g of organ): 3.73%
Rattus norvegicus [32]
  ID (per g of tissue): 0.106%
Rattus norvegicus [33]
  ID (per g of tissue): 1.46%
Rattus norvegicus [3]
  ID (per g of tissue): 0.342%
Rattus norvegicus [34]
  Ratio: 1.05%
Rattus norvegicus [35]
  ID (per g of organ): 2.21%
Rattus norvegicus [36]
  ID (per g of organ): 5.94%
Rattus norvegicus [37]
  ID (per g of organ): 2.97%
Rattus norvegicus [38]
  ID (per g of organ): 1.16%
Rattus norvegicus [39]
  ID (per g of organ): 1.83%
[4]
  Ratio: 2.84%
Rattus norvegicus [40]
  ID (per g of organ): 0.98%
Rattus norvegicus [41]
  ID (per g of organ): 0.8%
Rattus norvegicus [42]
  ID (per g of organ): 0.094%
Rattus norvegicus [43]
  ID (per g of organ): 0.06%
Rattus norvegicus [44]
  Ratio: 1.32%
Rattus norvegicus [45]
  ID (per g of tissue): 0.086%
Rattus norvegicus [46]
  ID (per g of organ): 0.1%
Rattus norvegicus [47]
  ID (per g of organ): 0.37%
Rattus norvegicus [48]
  ID (per g of organ): 4.94%
Rattus norvegicus [49]
  Ratio: 0.92%
Rattus norvegicus [50]
  ID (per g of organ): 2.1%
Rattus norvegicus [51]
  ID (per g of organ): 4.92%
Rattus norvegicus [52]
  ID (per g of tissue): 0.35%
Rattus norvegicus [53]
  Ratio: 1.13%
Rattus norvegicus [54]
  ID (per g of tissue): 0.54%
Rattus norvegicus [55]
  ID (per g of organ): 6.59%
Rattus norvegicus [56]
  ID (per g of tissue): 0.075%
[57]
  Ratio: 2.15%
[58]
  Ratio: 2.44%
Rattus norvegicus [59]
  ID (per g of organ): 2.89%
Rattus norvegicus [60]
  ID (per g of tissue): 0.097%
Rattus norvegicus [61]
  ID (per g of organ): 1.17%
Rattus norvegicus [62]
  ID (per g of tissue): 0.68%
[5]
  Ratio: 3.32%
Rattus norvegicus [6]
  ID (per g of tissue): 0.1%

## [3H]C1[C@H](C(C)(C)O)[C@]2(OC)CC[C@]13[C@H]1Cc4ccc(O)c5c4[C@@]3(CCN1CC1CC1)[C@H]2O5 (stereo partly drawn)
Rattus norvegicus [63]
  Kd: 0.046 nM
Rattus norvegicus [7]
  Kd: 0.047 nM
[64]
  K-1: 0.000533 s⁻¹
[65]
  K1: 0.5 min⁻¹

## CO[C@]12CC[C@@]3(C[C@@H]1C(C)(C)O)[C@H]1Cc4ccc(O)c5c4[C@@]3(CCN1CC[18F])[C@H]2O5
Rattus norvegicus [1]
  ID (per g of tissue): 0.041%
Rattus norvegicus [2]
  ID (per g of tissue): 0.037%
Rattus norvegicus [3]
  ID (per g of tissue): 0.103%
[4]
  Ratio: 1.06
[5]
  Ratio: 1.21
Rattus norvegicus [6]
  ID (per g of tissue): 0.087%
